# Antibody variant affinities, Ab-14 heavy chain, assay B

Values reported by Li et al. 2023, doi:10.1038/s41467-023-39022-2 (FLAb copy).

Target peptide (SARS-CoV-2 spike, HR2 region): PDVDLGDISGINAS

Parent scFv Ab-14: VH joined to VL by the linker GGGGSGGGGSGGGGS. Changes lie in the heavy chain CDRs alone.
VH: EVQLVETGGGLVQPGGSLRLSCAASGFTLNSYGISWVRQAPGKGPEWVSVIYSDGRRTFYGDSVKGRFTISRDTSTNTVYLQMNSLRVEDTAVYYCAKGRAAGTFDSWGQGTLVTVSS
VL: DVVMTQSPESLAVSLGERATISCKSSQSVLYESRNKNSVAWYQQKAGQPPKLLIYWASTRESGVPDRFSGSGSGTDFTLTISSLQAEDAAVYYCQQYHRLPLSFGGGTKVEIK

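The starting antibody came from a phage panning campaign against this peptide. This is the validation round: designs drawn from the data on random variants, tested in the same kind of assay. Group labels follow the data file (Ctrl: baseline library sampled from a position-specific scoring matrix, with some repeated check sequences; Rand: our label for a block that the file lists under HC and that is probably the random mutants of the ten best first-round binders; En: ensemble of fine-tuned language models; GP: Gaussian process model; GPLM: also part of the Gaussian process libraries; HC: hill climbing; Gen: genetic algorithm; Gibbs: Gibbs sampling; a sequence that several methods proposed may carry one label only). AlphaSeq pools MATa yeast showing the antibodies with MATalpha yeast showing the peptide. Binding brings cells together so that they mate, and sequencing counts the barcode pairs among the diploids. Read counts were normalised to the haploid input and turned into Kd by a linear fit to BCL2-family pairs of known affinity, for each replicate. Each pool was mated in six replicate cultures.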

Positions count from residue 1 of the parent VH; S31Q puts Q in place of S. Variants here have at most six changes. The Kd shown is the geometric mean over detected replicates; a lower Kd is a better binder. A pair that was not seen in any replicate is written "nd"; this usually means weak binding, but a binder can also be missed. Order: sorted from the lowest average up, undetected variants last. The parent sequence was in this pool as ten entries: three were never detected, three once, and four in most replicates, with averages from 2.2 nM to 240 nM. As a blank, each scFv also met three strains without target: over all heavy chain designs, 1% of these pairings were detected, typically at 120 nM and seldom below 7.0 nM. A sequence measured in both rounds can read differently, since the two assays cover different ranges. The authors' rule: three or more of the six replicates give a measured affinity, fewer mean a poor binder.

S31Q/G61S/R100N [GPLM_HC]: 350 pM (6 of 6 replicates).
S31D/G61A/D106F [GPLM_HC]: 560 pM (1 of 6 replicates).
T28S/S31E/R56K/R100K/A101T [GP_Gibbs]: 640 pM (6 of 6 replicates).
T28D/S31L/G61D/R100Q/A101T [GP_HC]: 970 pM (6 of 6 replicates).
T28N/S31D/F59A [Ctrl]: 1.0 nM (6 of 6 replicates).
T28D/S31D/S53A/G61A/R100E/S107V [En_HC]: 1.1 nM (6 of 6 replicates).
G26H/T28E/S31E/G61S/A101T [GP_Gibbs]: 1.2 nM (6 of 6 replicates).
T28D/S63D/R100Q/A101E [GP_Gibbs]: 1.2 nM (6 of 6 replicates).
T28D/G61A/R100S [GPLM_Gen]: 1.2 nM (6 of 6 replicates).
T28S/G61A/R100H/A101V [GPLM_Gen]: 1.4 nM (6 of 6 replicates).
G61I/S63D/R100N/S107K [GP_Gibbs]: 1.6 nM (6 of 6 replicates).
S31E/F59W/G61S [GPLM_HC]: 2.0 nM (6 of 6 replicates).
T28D/G61Q/S63R/A101T [GP_Gen]: 2.4 nM (6 of 6 replicates).
T28S/S31E/D62E/R100K [GP_Gibbs]: 2.8 nM (6 of 6 replicates).
N30M/G61H/R100Q/A101L [GP_HC]: 3.8 nM (2 of 6 replicates).
T28D/G61A/R100Q/S107F [GP_Gibbs]: 7.0 nM (6 of 6 replicates).
T28H/S31D/F59M/G61I [GP_HC]: 7.5 nM (6 of 6 replicates).
T28W/S31E/F59Y/A101T [GP_Gibbs]: 7.9 nM (6 of 6 replicates).
T28E/G61I/R100Q/A101T [GPLM_Gibbs]: 8.0 nM (6 of 6 replicates).
T28D/G61D/S63M/A101T [GP_Gen]: 9.7 nM (6 of 6 replicates).
S31D/R100Q/S107K [GPLM_Gen]: 9.8 nM (6 of 6 replicates).
T28S/G61V/S63Q/A101N [GP_Gibbs]: 10 nM (2 of 6 replicates).
T28S/G61A/S63K/A101T/S107N [GP_Gibbs]: 10 nM (3 of 6 replicates).
T28H/S31D/F59Y [GP_HC]: 13 nM (6 of 6 replicates).
T28E/G61L/A101N [GPLM_Gibbs]: 13 nM (6 of 6 replicates).
G26L/S31E/G61T/A101T [GPLM_HC]: 13 nM (6 of 6 replicates).
G61S/D62G/G99T [Ctrl]: 19 nM (6 of 6 replicates).
G26L/S31E/A101E [Ctrl]: 22 nM (2 of 6 replicates).
T28D/G61A/R100Q/S107D [GPLM_Gen]: 24 nM (3 of 6 replicates).
S31D/G61E/T104S [Ctrl]: 38 nM (3 of 6 replicates).
T28N/G61L/A101Q [GP_Gen]: 46 nM (5 of 6 replicates).
T28D/G61S/R100K/A102G [GP_HC]: 61 nM (4 of 6 replicates).
T28D/G103L [Ctrl]: 230 nM (1 of 6 replicates).
S63A [Ctrl]: 350 nM (5 of 6 replicates).
G61H/G99V/R100K/F105I [Ctrl]: 460 nM (1 of 6 replicates).
T28E/S53R/R100E/D106P [Ctrl]: nd (0 of 6 replicates).
I34Y/G103V [Ctrl]: nd (0 of 6 replicates).
S31N/F59H/G61H/S63Q/A101V/S107M [Ctrl]: nd (0 of 6 replicates).
T28D/Y32V/T104W/D106N [Rand]: nd (0 of 6 replicates).
G61D/R100Q/A101L/D106V [Rand]: nd (0 of 6 replicates).
S31D/A101T/D106F [GPLM_HC]: nd (0 of 6 replicates).
S31D/G103D [Ctrl]: nd (0 of 6 replicates).
G61S/D106T [Ctrl]: nd (0 of 6 replicates).
S31D/G33H/G55I/F59N/G61I [Rand]: nd (0 of 6 replicates).
S53A/D62V/A102E/F105N/D106I [Rand]: nd (0 of 6 replicates).
R100N/A102Y [Ctrl]: nd (0 of 6 replicates).
I34P/G61E/D106W [Ctrl]: nd (0 of 6 replicates).
R56K/A101N/A102G/T104R/D106P [Ctrl]: nd (0 of 6 replicates).
Y32Q/S35C/R56S/G61S [Ctrl]: nd (0 of 6 replicates).
G26F/F27K/N30D/I34G/F105A/D106L [Rand]: nd (0 of 6 replicates).
R56F/G61Q/D106I [Ctrl]: nd (0 of 6 replicates).

From the list, the first 8 with no signal in any replicate:

changes,group,Kd,detected
T28E/S53R/R100E/D106P,Ctrl,nd,0 of 6
I34Y/G103V,Ctrl,nd,0 of 6
S31N/F59H/G61H/S63Q/A101V/S107M,Ctrl,nd,0 of 6
T28D/Y32V/T104W/D106N,Rand,nd,0 of 6
G61D/R100Q/A101L/D106V,Rand,nd,0 of 6
S31D/A101T/D106F,GPLM_HC,nd,0 of 6
S31D/G103D,Ctrl,nd,0 of 6
G61S/D106T,Ctrl,nd,0 of 6